Screening results as filed in PubChem BioAssay.
An excerpt weighted towards active compounds, which were near 0.42% of everything screened.
Rango release inh = inhibition of RanGTP-driven Rango-importin beta dissociation; Potency, µM (top dose mostly 46.1 µM); Biochemical FRET Rango-importin beta, RanGTP-induced dissociation; O95149+P62826; hit rate 0.071% among 340,000; calls by dose curve; further: nearly all actives have a fitted effect of over 45% in size
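FRET read at 45 min, room temperature: inhibitors block the CFP/YFP signal rise when RanGTP (0.6 uM Ran, 2 mM GTP, 0.2 uM RCC1) frees Rango (0.1 uM) from importin beta (0.25 uM). Pre-read after 5 min compound exposure flags interference.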
Rango complex inh = Rango-importin beta binding inhibition. Rango CFP/YFP FRET sensor + importin beta, 45 min. Potency, µM (series often up to 92.2 µM). hit rate 0.031% among 340,000. AID 540263; calls by dose curve; further: nearly all actives have a fitted effect of over 15% in size
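Inhibition scored from the CFP 486 nm/YFP 530 nm FRET ratio 45 min after adding 0.125 microM importin beta to 50 nM Rango biosensor preincubated 5 min with compound (room temperature, PBS with DTT, Tween-20, BSA). No-importin wells as positive control.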
Epigenetic derep = derepresses silenced GFP reporter in murine cells. murine LDR cells, GFP reporter derepression, 30 h. Potency, µM (highest dose often 53.9 µM), usual class: activators. hit rate 0.2% among 280,000; further: nearly all actives have a fitted effect of over 60% in size
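Murine LDR cells bearing a silenced CMV-driven GFP reporter were exposed to compound for 30 h at 37 C. After PBS washes, GFP-positive cells (20-120 um objects) counted by laser-scanning microplate cytometry.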
Vif-A3F inh = Vif-A3F binding inhibition. Potency, µM (doses to about 46.1 µM). hit rate 0.2% among 390,000. HeLa A3F-eYFP + Vif (tagged APOBEC3F with the HIV-1 protein that degrades it), YFP fluorescence increase; further: nearly all actives have a fitted effect of over 65% in size
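Fluorescence increase (Ex 488/Em 500-530) after overnight compound treatment at 37 deg C flags inhibition of Vif-driven A3F-eYFP loss in stable HeLa A3F-eYFP/Vif cells seeded overnight beforehand.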
Vif-A3G inh = inhibitors of Vif-APOBEC3G interaction; HeLa A3G-eYFP + Vif (tagged APOBEC3G with the HIV-1 protein that degrades it), YFP fluorescence, overnight; Q9HC16; Potency, µM (titrated, usually from 46.1 µM), most hits filed as inhibitors; hit rate 0.076% among 410,000; AID 602310; further: nearly all actives have a fitted effect of over 60% in size
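Read-out is eYFP fluorescence (Ex 488/Em 500-530) from Vif-expressing HeLa A3G-eYFP cells; more signal means A3G escaped Vif-mediated degradation. Cells plated overnight, compound pinned in, incubated overnight at 37 deg C.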
Hits are given with their value; n = inactive; u = inconclusive; x = not tested or not shown; ! = a repeat was not active. Unless noted, the call rests on the fitted dose curve; in most records, active means well fitted curve in the direction sought with a large enough effect; inconclusive means small, poorly fitted or top-dose-only effect, or another doubt; inactive means no such curve, though single readings can be large; an effect the other way counts as inactive or inconclusive.

SMILES	Rango release inh	Rango complex inh	Epigenetic derep	Vif-A3F inh	Vif-A3G inh
CCN1C(=O)c2cccc3c(NC(=O)c4ccc5c(c4)OCCO5)ccc1c23	n	u	22µM	u	n
COCCNC(=S)N/N=C(\C)CCc1ccc2c(c1)OCO2	n	n	n	n	n
C/C(CCc1ccc2c(c1)OCO2)=N\NC(=S)NC(C)C	n	n	u	13µM	n
CCOC(=O)CSc1nc2sc3c(c2c(=O)n1-c1ccccc1)CCN(C(C)C)C3	18µM	u	x	u	n
CCOC(=O)CSc1nc2sc3c(c2c(=O)n1-c1ccccc1)CCN(C)C3	u	u	x	n	n
CCOc1cc([N+](=O)[O-])cc2c1C(=O)Nc1ccccc1O2	n	n	u	22µM	u
O=C1Nc2ccccc2Oc2cc([N+](=O)[O-])ccc21	n	n	n	u	n
COC(=O)/C=C/c1ccc2c(c1)S(=O)(=O)N(C1CCCC1)[C@H]2CC(=O)OC	x	x	x	x	n
CNc1nc(N/N=C/c2cc([N+](=O)[O-])ccc2F)nc(Nc2ccccc2)n1	n	n	x	n	n
CNc1nc(N/N=C/c2cc3c(cc2[N+](=O)[O-])OCO3)nc(Nc2ccccc2)n1	n	65µM	u	u	u
Nc1ccc(/C=C/c2ccnc3ccccc23)c(N)c1	x	x	x	x	n
CCOC(=O)/C=c1\s/c(=C\c2c(OC)ccc3ccccc23)c(=O)n1CC(=O)NCC1CCCO1 (stereo not given)	u	u	u	25µM	10µM
CCOC(=O)/C=c1/s/c(=C/c2ccc3cc(OC)ccc3c2)c(=O)n1CC(=O)NCC1CCCO1 (stereo not given)	u	u	x	7.1µM	n
CCCCNC(=O)C(CC)n1c(SCc2cccc(F)c2)nc2ccncc21 (stereo not given)	x	x	x	x	n
Cc1ccc(CNc2ccc3c(c2)OCO3)cc1	u	u	n	25µM	22µM
CC(C)(C)n1ncc2c(=O)n(Cc3ccc(Cl)c(C(F)(F)F)c3)cnc21	x	x	x	x	n
O=S(=O)(NCCNC/C=C/c1ccc(Br)cc1)c1cccc2cnccc12	x	x	n	x	x
O=C(Cn1c(=O)nc(-c2ccccc2F)c2cc(Cl)ccc21)Nc1ccccc1C(F)(F)F	x	x	n	n	n
COc1cc(N2CCCC2)c(OC)cc1/C=C1/NC(=S)NC1=O	u	u	16µM	u	u
N#Cc1c(N2CCOCC2)nc(N2CCCCC2)c2c1CCN(C1CCCCC1)C2	23µM	u	n	n	n
CCc1ccccc1NC(=O)c1cc2nc(-c3ccc(OC)c(OC)c3)cc(C(F)(F)F)n2n1	x	x	n	n	n
CCc1ccccc1NC(=O)c1cnn2c(C(F)(F)F)cc(-c3ccc(OC)c(OC)c3)nc12	x	x	13µM	u	n
O=C1C[C@H]2C=CCc3cccc(c32)CN1Cc1ccc(Cl)cc1	x	x	x	x	n
Cc1ccccc1Oc1nc2ccccn2c(=O)c1/C=C(\C#N)c1nc2ccccc2[nH]1	x	x	11µM	x	x
Cc1cc(C)cc(Oc2nc3c(C)cccn3c(=O)c2/C=C(\C#N)c2nc3ccccc3[nH]2)c1	x	x	7.1µM	u	n
SMILES	Rango release inh	Rango complex inh	Epigenetic derep	Vif-A3F inh	Vif-A3G inh
CCc1ccc(Oc2nc3c(C)cccn3c(=O)c2/C=C(\C#N)c2nc3ccccc3[nH]2)cc1	x	x	11µM	n	n
Cc1ccc(Oc2nc3ccccn3c(=O)c2/C=C(\C#N)c2nc3ccccc3s2)c(C)c1	x	x	n	n	n
COc1ccc(Oc2nc3c(C)cccn3c(=O)c2/C=C(\C#N)c2nc3ccccc3[nH]2)cc1	x	x	4µM	x	x
Cc1ccc(Oc2nc3c(C)cccn3c(=O)c2/C=C(\C#N)C(N)=O)cc1	u	u	n	n	n
Cc1cccn2c(=O)c(/C=C(\C#N)c3nc4ccccc4s3)c(Oc3ccc(Br)cc3)nc12	x	x	n	n	n
Cc1nn(-c2ccccn2)c2c1-c1nc(N)sc1CC2	x	x	x	x	n
COc1cccc(CNc2ccc3nc(-c4ccc(N)cc4)c(OC)n3n2)c1	x	x	n	x	x
COc1ccc(CCC(=O)NCc2nc3cccnc3n2Cc2ccccc2)cc1	x	x	n	n	n
Cc1cc(N2CCOCC2)nc2cc(O)ccc12	16µM	u	n	n	n
CC1CCN(C(=O)C(C)Sc2nc(-c3ccccc3)cc(C(F)(F)F)n2)CC1 (stereo not given)	n	n	n	n	20µM!
CC(Sc1nc(-c2ccccc2)cc(C(F)(F)F)n1)C(=O)N1CCCC1 (stereo not given)	n	n	n	n	n
CCn1cc(/C=C/c2cc[n+](C)cc2)c2ccccc21	u	n	x	n	2.5µM
CC(C)n1cc(/C=C/c2cc[n+](C)cc2)c2ccccc21	u	u	x	n	4µM
Cc1ccccc1/C=C/c1cc[n+](C)cc1	n	n	n	n	n
CC(C)(C)n1ncc2c(=O)n(Cc3cccc(-c4cccs4)c3)cnc21	x	x	x	x	n
O=C(O)CSc1cccc[n+]1[O-]	n	n	n	n	n
N#CC(C#N)=C(N)CSc1cccc[n+]1[O-]	n	n	8.9µM	u	n
COc1cc(Cl)c(C)cc1NC(=O)c1cnc(N2CCOCC2)c2ccccc12	x	x	n	n	n
CN(C)c1ccc2c(c1)OC(N)=C(C#N)C2c1cccc(F)c1 (stereo not given)	u	u	n	22µM	u
Cc1[nH][nH]c(=O)c1C(c1c(C)[nH][nH]c1=O)c1cn(Cc2ccccc2Cl)c2ccccc12	n	n	n	n	11µM
N/C(=N\O)c1cn(Cc2ccccc2Cl)c2ccccc12	n	n	x	n	n
C=CCN1C(=O)/C(=C/c2ccc(OCC(=O)O)cc2)S/C1=N/c1nccs1	n	u	n	n	n
C=CCN=C1S/C(=C\c2ccc(Cl)cc2)C(=O)N1CC=C	n	n	n	n	n
C=CCN1C(=O)/C(=C/c2ccc(N(C)C)cc2)S/C1=N\c1nnc(CC)s1	x	x	13µM	x	x
C=CCN1C(=O)/C(=C/c2ccc(O)c(OC)c2)S/C1=N/c1nccs1	u	u	n	32µM	u
SMILES	Rango release inh	Rango complex inh	Epigenetic derep	Vif-A3F inh	Vif-A3G inh
Cc1c(N2C(=O)/C(=C/c3ccc(N(C)C)cc3)N(C)C2=S)c(=O)n(-c2ccccc2)n1C	n	n	x	10µM	u
Cc1c(N2C(=O)/C(=C/c3ccccc3)SC2=S)c(=O)n(-c2ccccc2)n1C	n	n	n	n	n
Cc1ccc(Nc2nc(Cl)c(C=O)s2)cc1Cl	u	u	u	22µM	u
O=Cc1sc(Nc2ccccc2)nc1Cl	u	u	n	25µM	u
COC(=O)c1c(-c2cccs2)csc1NC(=O)COc1ccc(C(C)C)cc1	x	x	n	x	x
COc1ccccc1NC(=O)CC1Nc2ccccc2NC1=O (stereo not given)	12µM	u	n	n	n
Cc1cc2c(cc1C)NC(CC(=O)NCc1ccccc1)C(=O)N2 (stereo not given)	u	u	n	28µM	n
Cc1ccc(S(=O)(=O)N2CCC(c3nc(-c4cccs4)nc4ccccc34)CC2)cc1	x	x	x	x	n
CCc1cnc2c(c1SCC(=O)c1ccc(OC)cc1)c(=O)n(C)c(=O)n2C	x	x	n	n	n
Cc1sc2ccccc2[n+]1CCc1ccccc1	x	x	x	x	n
